## Yeast mating assay 2: variants of the scFv Ab-95

Antigen: PDVDLGDISGINAS, a 14-residue peptide of the SARS-CoV-2 spike HR2 region.

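AAYL52 was designed without a model: most single CDR substitutions and a random sample of double and triple ones. The scFvs were displayed on barcoded MATa yeast, the peptide on MATalpha yeast. After mating in shaken culture at 30 °C for 16 h, diploids were selected and their barcode pairs sequenced. The ratio of observed to expected reads was calibrated, replicate by replicate, on BCL2-family standards whose Kd was known from biolayer interferometry. There are three technical replicates.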

Ab-95 is the parent antibody, in scFv form: VH, then a 15-residue (Gly4Ser)3 linker, then VL. The heavy chain is unchanged in all variants.
VH: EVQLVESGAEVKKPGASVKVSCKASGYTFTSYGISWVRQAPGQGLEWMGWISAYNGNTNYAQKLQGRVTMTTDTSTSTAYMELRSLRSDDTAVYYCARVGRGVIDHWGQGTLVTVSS
VL: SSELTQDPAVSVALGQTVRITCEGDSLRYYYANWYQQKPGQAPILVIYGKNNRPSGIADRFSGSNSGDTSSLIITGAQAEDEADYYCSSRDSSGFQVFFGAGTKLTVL

Variants are written as CDR1, CDR2 and CDR3 of the light chain (limits as in the source). Parent: EGDSLRYYYAN, GKNNRPS, SSRDSSGFQVF. The read-out is the apparent dissociation constant on a log10 scale (nM): the lower, the stronger. "nd" marks a missing value. The strain was present, yet no cells mated with the target were sequenced in that replicate, which points to weak or no binding. Parent in this assay: reference entry 2.31, copy in this library 2.25. Background: pairings of library AAYL52 with three empty control strains gave a value in 28% of cases (median 3.91, 5th percentile 2.90). Values in that range, when seen in few replicates, are hard to tell from nonspecific mating.

| # | CDR-L1 | CDR-L2 | CDR-L3 | log10 Kd (nM) by replicate |
|---|---|---|---|---|
| 1 | EGDSLRSYYVN | GKNNRPS | SSRDSSMFQVF | 3.86 / 2.81 / 3.12 |
| 2 | EGDSLRYYYAN | GKNNRDG | SSRDSSTFQVF | 4.69 / 3.94 / nd |
| 3 | EGDSLRYYYAN | ERNNRPS | SSRPSSGFQVF | 3.94 / 3.55 / nd |
| 4 | EGDGLRYYYAN | GKNNRPS | SSRDSSGFQHF | 3.33 / 3.38 / 3.21 |
| 5 | EGDSLRYYYAN | GKNERPS | SSRKSSGFQDF | 2.69 / 2.19 / nd |
| 6 | ENDSLRYYYAN | GKNNRPS | SSRDSDGFQVG | 4.02 / nd / 4.50 |
| 7 | EGDQLRYYYAN | FKNNRPN | SSRDSSGFQVF | 3.70 / 3.36 / nd |
| 8 | EGDSLLYMYAN | GKNNRVS | SSRDSSGFQVF | 2.44 / 2.25 / 2.37 |
| 9 | EGDSLRYPYAN | GKNNRPS | SSRDSSTNQVF | 2.56 / 3.34 / nd |
| 10 | PGDSMRYYYAN | GKNNRPS | SSSDSSGFQVF | 3.64 / 3.05 / 3.38 |
| 11 | EGDSLRYYYAN | GRNNSPS | SSRDSSGYQVF | 2.61 / 2.15 / nd |
| 12 | EGDSLRYYYAN | GKNNRPC | SSRDSSGFQVI | 2.93 / nd / nd |
| 13 | EGDSLRYYYAN | TKNNRPS | SSRDSSGEVVF | 5.50 / 4.11 / 4.30 |
| 14 | IGDSLRYYYAN | GKNNRQS | SSRDSSGFQIF | 2.68 / 2.81 / 3.65 |
| 15 | EGDSLHNYYAN | GKNNRPS | SSRDSSSFQVF | nd / 3.63 / nd |
| 16 | EGDSLRYYYAN | GKNNRPV | LSRDSSGFQKF | 4.14 / nd / 4.16 |
| 17 | EGDSLRYYYAN | GANFRPS | SSRDSIGFQVF | 2.83 / 3.71 / nd |
| 18 | EKDSLGYYYAN | GKNNRPS | SSRPSSGFQVF | 2.79 / 3.41 / 2.73 |
| 19 | ENDSQRYYYAN | GKNNRPS | SSRDFSGFQVF | nd / nd / nd |
| 20 | LGDSLRYYYAN | GKNNYRS | SSRDSSGFQVF | 3.92 / 5.06 / nd |
| 21 | FGDSLRYYYAN | NKNNRPS | SSRQSSGFQVF | nd / nd / nd |
| 22 | EGMSLRPYYAN | GKNNRPS | WSRDSSGFQVF | 3.95 / 4.07 / 4.56 |
| 23 | EGDQLRYYYAN | EKNNRPS | SSRDSSGFQVI | 3.84 / nd / nd |
| 24 | EGDSLRYYYAA | GWPNRPS | SSRDSSGFQVF | 3.91 / 5.56 / 4.10 |
| 25 | ECDSLRYRYAN | GKNNRPS | SSRDSSGFQVS | 2.72 / 2.51 / 2.05 |
| 26 | DGDNLRYYYAN | GKNNRPN | SSRDSSGFQVF | 2.68 / 2.59 / 2.42 |
| 27 | EWDSLRYYYAK | GCNNRPS | SSRDSSGFQVF | 4.87 / nd / nd |
| 28 | EGDSLRYYYAT | GKNNRFS | SSRDSSGFQPF | nd / nd / nd |
| 29 | EGDMLRYYYAN | GKNNRPS | SSSDWSGFQVF | 3.95 / 3.17 / 2.52 |
| 30 | MQDSLRYYYAN | GKNNRPS | SSRDSSGFQTF | 3.70 / nd / nd |
| 31 | EGMSLQYYYAN | GKNDRPS | SSRDSSGFQVF | nd / nd / nd |
| 32 | EKDSLRYYYAN | GKDNRPS | SSRDSSGFQVF | 3.55 / 4.30 / 4.13 |
| 33 | EGDSLRYYYAG | GKNNRPS | SSRDQSGFQVM | 4.31 / nd / 2.87 |
| 34 | EWDSLRYVYAN | GKNNRPS | KSRDSSGFQVF | 3.64 / nd / nd |
| 35 | EGDSLRWYWAT | GKNNRPS | SSRDSSGFQVF | 3.77 / 3.80 / 2.94 |
| 36 | EGDSSCYYYAN | GKNNRPS | SSRHSSGFQVF | 3.09 / 4.90 / nd |
| 37 | EGDSLRYYYAN | GKNNRPS | SSRDSSMSEVF | 2.57 / 2.54 / 4.08 |
| 38 | EGDWLRYYYAN | GKNNRPS | RWRDSSGFQVF | 4.52 / nd / nd |
| 39 | EGDSLRYCYAN | GKNNRRS | SSPDSSGFQVF | nd / 4.03 / 3.13 |
| 40 | EGDSLRYYYAN | GKNNRPS | HSRDSRGFQVF | 3.41 / nd / nd |

Picked from the list: the 4 lowest averages where every replicate gave a value.

{"CDR-L1": "EGDSLLYMYAN", "CDR-L2": "GKNNRVS", "CDR-L3": "SSRDSSGFQVF", "log10 Kd (nM) by replicate": "2.44 / 2.25 / 2.37"}
{"CDR-L1": "ECDSLRYRYAN", "CDR-L2": "GKNNRPS", "CDR-L3": "SSRDSSGFQVS", "log10 Kd (nM) by replicate": "2.72 / 2.51 / 2.05"}
{"CDR-L1": "DGDNLRYYYAN", "CDR-L2": "GKNNRPN", "CDR-L3": "SSRDSSGFQVF", "log10 Kd (nM) by replicate": "2.68 / 2.59 / 2.42"}
{"CDR-L1": "EKDSLGYYYAN", "CDR-L2": "GKNNRPS", "CDR-L3": "SSRPSSGFQVF", "log10 Kd (nM) by replicate": "2.79 / 3.41 / 2.73"}

Values reported by Engelhart et al. 2022, doi:10.1038/s41597-022-01779-4 (FLAb copy).